## Yeast mating assay B: variants of the scFv Ab-14

From the AlphaSeq antibody data of Li et al. 2023 (doi:10.1038/s41467-023-39022-2), copy in the FLAb collection.

Binding partner: SARS-CoV-2 spike HR2 peptide, sequence PDVDLGDISGINAS.

Parent: Ab-14, a human scFv built as VH, three GGGGS repeats, VL. Only the CDRs of the heavy chain vary.
VH: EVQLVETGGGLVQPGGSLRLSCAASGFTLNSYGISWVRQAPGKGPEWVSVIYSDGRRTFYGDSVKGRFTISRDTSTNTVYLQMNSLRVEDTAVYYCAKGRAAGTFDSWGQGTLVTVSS
VL: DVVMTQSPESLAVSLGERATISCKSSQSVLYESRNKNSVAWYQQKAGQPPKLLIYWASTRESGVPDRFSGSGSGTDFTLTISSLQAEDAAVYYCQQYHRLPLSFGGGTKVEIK

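Phage display of a naive human antibody library on the peptide gave the parent. Designed CDR sequences, proposed from the first random library and measured here. Group labels follow the data file (Ctrl: baseline library sampled from a position-specific scoring matrix, with some repeated check sequences; En: ensemble of fine-tuned language models; GP: Gaussian process model; GPLM: also part of the Gaussian process libraries; HC: hill climbing; Gen: genetic algorithm; Gibbs: Gibbs sampling; a sequence that several methods proposed may carry one label only). In AlphaSeq, yeast of one mating type display the scFv and yeast of the other type display the target. Mating (16 h, 30 °C) was followed by selection of diploids and sequencing of their barcodes. The ratio of observed to expected reads was calibrated, replicate by replicate, on BCL2-family standards whose Kd was known from biolayer interferometry. Each pool was mated in six replicate cultures.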

The parent's heavy chain CDRs are GFTLNSYGIS, VIYSDGRRTFYGDSVK, GRAAGTFDS; each variant's own CDRs replace them letter for letter. Values are log10 of the apparent Kd in nM; lower means stronger binding. Replicates are averaged; those with no signal do not enter the mean. "not detected" marks a missing value. The strain was present, yet no cells mated with the target were sequenced in any replicate, which points to weak or no binding.

{"CDR-H1": "GFDINEYGIS", "CDR-H2": "VVYADGMRQAYIENVK", "CDR-H3": "GTLSGTFDA", "group": "En_Gibbs", "mean log10 Kd (nM)": "0.04", "replicates with signal": "6 of 6", "control signals": "0 of 18"}
{"CDR-H1": "GFDLNEYGIS", "CDR-H2": "VIYADGQRTAYADSVK", "CDR-H3": "GQVAGTFDV", "group": "En_Gen", "mean log10 Kd (nM)": "0.69", "replicates with signal": "6 of 6", "control signals": "2 of 18"}
{"CDR-H1": "GFDLNSYGIS", "CDR-H2": "VIYSDGRRTAYGDRVK", "CDR-H3": "GRAAGTFDS", "group": "GP_Gen", "mean log10 Kd (nM)": "0.00", "replicates with signal": "6 of 6", "control signals": "1 of 18"}
{"CDR-H1": "GFDLNEYGIS", "CDR-H2": "VIYSDGRRTFYDDSVK", "CDR-H3": "GRAAGTFDS", "group": "GP_Gen", "mean log10 Kd (nM)": "-0.16", "replicates with signal": "6 of 6", "control signals": "0 of 18"}
{"CDR-H1": "GEGLNSYGIS", "CDR-H2": "VIYSDGYRTFYGDSVK", "CDR-H3": "GRARGTNDS", "group": "Ctrl", "mean log10 Kd (nM)": "not detected", "replicates with signal": "0 of 6", "control signals": "0 of 18"}
{"CDR-H1": "GFTLNSYGIS", "CDR-H2": "VIYSDGRRTFYSDSVK", "CDR-H3": "GKEHGTFDS", "group": "Ctrl", "mean log10 Kd (nM)": "not detected", "replicates with signal": "0 of 6", "control signals": "0 of 18"}
{"CDR-H1": "GFTLNSYGIS", "CDR-H2": "VIYSDGRRTAYMDSVK", "CDR-H3": "GRFAGTFRS", "group": "Ctrl", "mean log10 Kd (nM)": "not detected", "replicates with signal": "0 of 6", "control signals": "0 of 18"}
{"CDR-H1": "GFTLNSYGIS", "CDR-H2": "VIYSDGRRTFYDDSVK", "CDR-H3": "GQAAGTFDD", "group": "GP_HC", "mean log10 Kd (nM)": "2.40", "replicates with signal": "2 of 6", "control signals": "1 of 18"}
{"CDR-H1": "GFDLNEYGIS", "CDR-H2": "VIYADGRRTFYADSVK", "CDR-H3": "GQVAGTFNV", "group": "En_HC", "mean log10 Kd (nM)": "0.23", "replicates with signal": "6 of 6", "control signals": "0 of 18"}
{"CDR-H1": "GETLNSYGIS", "CDR-H2": "VIYSDGQRTFYGDSVK", "CDR-H3": "GRAKDLFDS", "group": "Ctrl", "mean log10 Kd (nM)": "not detected", "replicates with signal": "0 of 6", "control signals": "0 of 18"}
{"CDR-H1": "GMSLDEYGIS", "CDR-H2": "VIYADGRRQAYSDEVK", "CDR-H3": "GEHGWFATV", "group": "En_Gibbs", "mean log10 Kd (nM)": "not detected", "replicates with signal": "0 of 6", "control signals": "1 of 18"}
{"CDR-H1": "GFELNSYGIS", "CDR-H2": "VIYSDGRRTAYGDSVK", "CDR-H3": "GKNAGTFDS", "group": "GP_Gibbs", "mean log10 Kd (nM)": "0.84", "replicates with signal": "6 of 6", "control signals": "2 of 18"}
{"CDR-H1": "GFSLDEFGIS", "CDR-H2": "VIYADGQRSAYSHNVK", "CDR-H3": "GQHGGFTVS", "group": "En_Gibbs", "mean log10 Kd (nM)": "not detected", "replicates with signal": "0 of 6", "control signals": "0 of 18"}
{"CDR-H1": "GFDLNEYGIS", "CDR-H2": "VIYADGRRTAYADNVK", "CDR-H3": "GQNAGTFDV", "group": "En_Gen", "mean log10 Kd (nM)": "-0.42", "replicates with signal": "6 of 6", "control signals": "2 of 18"}
{"CDR-H1": "GFDLNEYGIS", "CDR-H2": "VIYADGRRTAYIDSVK", "CDR-H3": "GNQAGTFDL", "group": "En_HC", "mean log10 Kd (nM)": "-0.55", "replicates with signal": "6 of 6", "control signals": "0 of 18"}
{"CDR-H1": "GFQLNNYGIS", "CDR-H2": "VIYSDGRRTFYSDSVK", "CDR-H3": "GEAAGTFDS", "group": "GP_Gibbs", "mean log10 Kd (nM)": "0.83", "replicates with signal": "6 of 6", "control signals": "0 of 18"}
{"CDR-H1": "GFSLNQYGIS", "CDR-H2": "VIYSDGRRTFYSDSVK", "CDR-H3": "GQAAGTFDS", "group": "GPLM_Gen", "mean log10 Kd (nM)": "0.00", "replicates with signal": "6 of 6", "control signals": "0 of 18"}
{"CDR-H1": "GFELNSYGIS", "CDR-H2": "VIYADGRRTFYGDSVK", "CDR-H3": "GQAAGTFDL", "group": "GP_Gen", "mean log10 Kd (nM)": "-0.19", "replicates with signal": "6 of 6", "control signals": "0 of 18"}
{"CDR-H1": "GFQLDEYGIS", "CDR-H2": "VIYADGERTHYSNDVK", "CDR-H3": "GTIGGTFFQ", "group": "En_Gibbs", "mean log10 Kd (nM)": "1.30", "replicates with signal": "6 of 6", "control signals": "0 of 18"}
{"CDR-H1": "MFTLNSYGIS", "CDR-H2": "VIYSDGRRTFYSDSVK", "CDR-H3": "GEAAGTFDS", "group": "GPLM_Gen", "mean log10 Kd (nM)": "not detected", "replicates with signal": "0 of 6", "control signals": "0 of 18"}
{"CDR-H1": "GFTLNSYGIS", "CDR-H2": "VIYADGVRTFYGDSYK", "CDR-H3": "GSAAITFDS", "group": "Ctrl", "mean log10 Kd (nM)": "not detected", "replicates with signal": "0 of 6", "control signals": "0 of 18"}
{"CDR-H1": "GFTLNSYGIS", "CDR-H2": "VIYSDGRRTFYHDSVK", "CDR-H3": "GRAAGTFDS", "group": "Ctrl", "mean log10 Kd (nM)": "0.24", "replicates with signal": "2 of 6", "control signals": "0 of 18"}
{"CDR-H1": "GFDLDEYGIS", "CDR-H2": "VIYADGQRTAYADSVK", "CDR-H3": "GENAGTFDM", "group": "En_Gen", "mean log10 Kd (nM)": "-0.33", "replicates with signal": "6 of 6", "control signals": "1 of 18"}
{"CDR-H1": "GFQLNSYGIS", "CDR-H2": "VIYSDGRRTFYGDNVK", "CDR-H3": "GQTAGTFDS", "group": "GP_Gen", "mean log10 Kd (nM)": "1.34", "replicates with signal": "3 of 6", "control signals": "1 of 18"}
{"CDR-H1": "GFDLNEYGIS", "CDR-H2": "VIYADGMRTAYADTVK", "CDR-H3": "GTNAGTFDV", "group": "En_Gen", "mean log10 Kd (nM)": "-0.47", "replicates with signal": "6 of 6", "control signals": "1 of 18"}
{"CDR-H1": "GFDLNEYGIS", "CDR-H2": "VIYADGQRTAYSDSVK", "CDR-H3": "GEVAGTFDV", "group": "En_Gen", "mean log10 Kd (nM)": "-0.31", "replicates with signal": "6 of 6", "control signals": "0 of 18"}

Excerpt, the final 3 entries:

{"CDR-H1": "GFQLNSYGIS", "CDR-H2": "VIYSDGRRTFYGDNVK", "CDR-H3": "GQTAGTFDS", "group": "GP_Gen", "mean log10 Kd (nM)": "1.34", "replicates with signal": "3 of 6", "control signals": "1 of 18"}
{"CDR-H1": "GFDLNEYGIS", "CDR-H2": "VIYADGMRTAYADTVK", "CDR-H3": "GTNAGTFDV", "group": "En_Gen", "mean log10 Kd (nM)": "-0.47", "replicates with signal": "6 of 6", "control signals": "1 of 18"}
{"CDR-H1": "GFDLNEYGIS", "CDR-H2": "VIYADGQRTAYSDSVK", "CDR-H3": "GEVAGTFDV", "group": "En_Gen", "mean log10 Kd (nM)": "-0.31", "replicates with signal": "6 of 6", "control signals": "0 of 18"}

Nonspecific signal, from three strains lacking the peptide, appeared in 1% of pairings of all heavy chain designs, centred on 2.08 (5% of these signals below 0.84); values are not corrected for it. The control count says in how many pairings with the empty strains this scFv gave a signal. The parent sequence was in this pool as ten entries: three were never detected, three once, and four in most replicates, with averages from 0.34 to 2.37. The authors averaged sequences with at least three values out of six and counted those with two or fewer as poor binders. A sequence measured in both rounds can read differently, since the two assays cover different ranges.